The text below walks through data of EP4810483A1, “6- AND 5-HETEROARYL DERIVATIVES AND USE THEREOF” (CMS Research & Development Pte. Ltd., priority 2023, dated 2025).

Amino acid sequences for entries named in this document (tags omitted). A change or cut given only in a name is not applied to a line headed by its entry.
UniProt O43525: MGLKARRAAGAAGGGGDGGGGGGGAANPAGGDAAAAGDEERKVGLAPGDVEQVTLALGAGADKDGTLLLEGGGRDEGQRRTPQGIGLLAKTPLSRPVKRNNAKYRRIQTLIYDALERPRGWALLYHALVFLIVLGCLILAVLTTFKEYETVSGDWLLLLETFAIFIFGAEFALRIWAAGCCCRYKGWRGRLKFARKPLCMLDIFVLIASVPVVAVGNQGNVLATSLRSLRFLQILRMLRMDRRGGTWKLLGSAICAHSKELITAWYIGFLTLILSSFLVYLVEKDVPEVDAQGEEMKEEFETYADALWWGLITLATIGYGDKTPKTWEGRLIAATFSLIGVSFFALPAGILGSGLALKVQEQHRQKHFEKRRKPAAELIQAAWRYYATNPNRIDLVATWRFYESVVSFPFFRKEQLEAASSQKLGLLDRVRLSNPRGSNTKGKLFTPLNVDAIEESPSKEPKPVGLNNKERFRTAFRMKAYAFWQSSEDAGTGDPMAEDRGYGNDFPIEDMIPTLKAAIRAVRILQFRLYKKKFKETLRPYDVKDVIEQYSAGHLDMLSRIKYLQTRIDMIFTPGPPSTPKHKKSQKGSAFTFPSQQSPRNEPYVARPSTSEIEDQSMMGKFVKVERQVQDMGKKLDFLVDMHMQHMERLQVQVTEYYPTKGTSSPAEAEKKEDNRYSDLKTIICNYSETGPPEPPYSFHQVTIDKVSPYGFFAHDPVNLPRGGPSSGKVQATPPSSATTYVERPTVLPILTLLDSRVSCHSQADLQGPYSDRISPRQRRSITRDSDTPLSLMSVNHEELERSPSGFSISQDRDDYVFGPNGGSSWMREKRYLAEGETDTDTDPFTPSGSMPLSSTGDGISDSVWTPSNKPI
UniProt O43526, whole entry: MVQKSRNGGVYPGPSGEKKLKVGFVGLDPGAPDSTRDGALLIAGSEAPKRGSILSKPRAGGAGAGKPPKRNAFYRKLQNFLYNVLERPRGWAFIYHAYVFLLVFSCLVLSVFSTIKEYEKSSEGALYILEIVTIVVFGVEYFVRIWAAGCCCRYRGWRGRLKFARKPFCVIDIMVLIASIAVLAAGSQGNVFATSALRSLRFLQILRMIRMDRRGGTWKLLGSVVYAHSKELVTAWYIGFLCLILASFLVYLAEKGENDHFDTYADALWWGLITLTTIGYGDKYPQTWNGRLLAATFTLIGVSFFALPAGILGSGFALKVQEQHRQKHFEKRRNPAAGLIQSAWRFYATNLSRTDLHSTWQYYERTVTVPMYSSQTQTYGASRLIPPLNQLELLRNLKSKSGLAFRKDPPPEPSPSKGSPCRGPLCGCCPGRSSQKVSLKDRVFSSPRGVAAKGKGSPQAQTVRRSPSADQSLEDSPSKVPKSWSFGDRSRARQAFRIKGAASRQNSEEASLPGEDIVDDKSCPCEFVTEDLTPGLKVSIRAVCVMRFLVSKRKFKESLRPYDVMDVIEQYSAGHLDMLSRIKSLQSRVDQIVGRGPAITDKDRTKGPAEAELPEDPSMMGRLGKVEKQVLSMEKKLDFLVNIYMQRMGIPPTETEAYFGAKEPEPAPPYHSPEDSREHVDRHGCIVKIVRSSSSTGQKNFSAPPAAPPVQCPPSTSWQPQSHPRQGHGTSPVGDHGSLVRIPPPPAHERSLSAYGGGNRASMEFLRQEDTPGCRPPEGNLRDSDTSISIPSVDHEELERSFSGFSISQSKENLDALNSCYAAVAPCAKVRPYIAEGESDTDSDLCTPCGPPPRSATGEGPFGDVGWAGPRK
UniProt P05177, whole entry: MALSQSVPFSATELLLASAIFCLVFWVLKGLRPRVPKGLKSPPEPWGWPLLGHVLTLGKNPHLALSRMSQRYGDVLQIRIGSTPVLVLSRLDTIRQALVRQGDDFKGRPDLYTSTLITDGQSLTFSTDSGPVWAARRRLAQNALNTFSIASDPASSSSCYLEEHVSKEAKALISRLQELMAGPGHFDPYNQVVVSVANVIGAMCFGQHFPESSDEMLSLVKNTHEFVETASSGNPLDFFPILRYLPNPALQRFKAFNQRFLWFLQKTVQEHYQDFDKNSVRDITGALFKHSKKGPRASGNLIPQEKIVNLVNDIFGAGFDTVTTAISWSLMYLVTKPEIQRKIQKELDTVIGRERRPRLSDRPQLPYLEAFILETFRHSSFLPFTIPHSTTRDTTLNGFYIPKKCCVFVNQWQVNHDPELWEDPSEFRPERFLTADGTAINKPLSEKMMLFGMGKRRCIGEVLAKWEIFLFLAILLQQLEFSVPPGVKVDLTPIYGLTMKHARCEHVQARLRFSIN
UniProt P33261, whole entry: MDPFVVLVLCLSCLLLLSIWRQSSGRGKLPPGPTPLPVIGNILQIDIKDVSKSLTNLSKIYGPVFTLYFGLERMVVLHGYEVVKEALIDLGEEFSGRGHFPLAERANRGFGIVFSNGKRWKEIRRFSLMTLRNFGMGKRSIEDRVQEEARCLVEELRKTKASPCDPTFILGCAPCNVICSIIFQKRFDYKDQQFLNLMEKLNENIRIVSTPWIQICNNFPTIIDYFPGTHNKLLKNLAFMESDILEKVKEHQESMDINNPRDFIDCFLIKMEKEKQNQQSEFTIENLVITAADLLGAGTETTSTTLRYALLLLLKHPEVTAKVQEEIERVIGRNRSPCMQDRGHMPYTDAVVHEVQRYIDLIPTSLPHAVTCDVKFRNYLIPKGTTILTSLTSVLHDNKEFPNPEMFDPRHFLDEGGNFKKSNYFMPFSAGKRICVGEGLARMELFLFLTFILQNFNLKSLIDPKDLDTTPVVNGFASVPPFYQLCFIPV
UniProt P11712, whole entry: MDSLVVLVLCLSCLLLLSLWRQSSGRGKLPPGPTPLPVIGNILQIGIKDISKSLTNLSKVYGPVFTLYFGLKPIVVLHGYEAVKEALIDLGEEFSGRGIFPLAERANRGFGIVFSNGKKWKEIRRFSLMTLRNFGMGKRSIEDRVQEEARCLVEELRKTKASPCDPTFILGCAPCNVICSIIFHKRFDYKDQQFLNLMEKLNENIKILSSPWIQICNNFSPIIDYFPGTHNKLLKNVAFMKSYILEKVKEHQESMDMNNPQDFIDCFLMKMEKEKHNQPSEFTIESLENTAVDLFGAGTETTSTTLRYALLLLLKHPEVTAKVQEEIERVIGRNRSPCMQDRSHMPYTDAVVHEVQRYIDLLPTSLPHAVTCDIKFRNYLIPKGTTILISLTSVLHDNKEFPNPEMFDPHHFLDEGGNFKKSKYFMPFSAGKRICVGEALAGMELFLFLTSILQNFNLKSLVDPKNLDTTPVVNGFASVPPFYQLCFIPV
UniProt P10635, whole entry: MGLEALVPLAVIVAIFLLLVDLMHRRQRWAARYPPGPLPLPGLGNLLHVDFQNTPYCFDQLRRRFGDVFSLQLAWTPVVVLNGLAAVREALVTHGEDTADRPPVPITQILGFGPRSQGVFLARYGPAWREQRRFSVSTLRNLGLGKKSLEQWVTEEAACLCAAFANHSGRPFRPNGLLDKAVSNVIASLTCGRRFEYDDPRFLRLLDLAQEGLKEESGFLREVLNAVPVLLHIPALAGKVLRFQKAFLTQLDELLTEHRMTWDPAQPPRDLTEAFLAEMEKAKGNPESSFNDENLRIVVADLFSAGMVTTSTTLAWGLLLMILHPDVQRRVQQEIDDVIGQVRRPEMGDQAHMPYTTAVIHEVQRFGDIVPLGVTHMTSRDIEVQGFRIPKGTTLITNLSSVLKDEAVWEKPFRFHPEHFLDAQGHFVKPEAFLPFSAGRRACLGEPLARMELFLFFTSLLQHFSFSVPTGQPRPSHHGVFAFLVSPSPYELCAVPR

One data set concerns the target T1, hKCNQ2/3 (Homo sapiens, UniProt O43525+O43526).
T1 construct: expressed in transfected cells; host or cells: CHO
Nature of the data set: cell-based. The text has this:
Test Method 1: hKCNQ2/3 Thallium Flux Assay
Test Objective: To test the in vitro concentration-response relationship of compounds using FLIPR thallium flux assay in CHO cell lines stably expressing hKCNQ2/3.
According to the split ratio, the cells were transferred to another T-75 flask containing complete cell growth medium. Note: To maintain logarithmic growth, the cells should be kept in a subconfluent monolayer state. Based on the cell doubling time, the cells were passaged every 2-3 days.
• (1) Day 1 - Cell preparation: Cells were digested as described above, and cell density and viability were determined using a Cell Countess. […] 2) Each 1 mM solution of K2SO4 and Tl2SO4 contains 2 mM K^+ and Tl^+; the final concentration should be calculated based on the ion concentration. 3) TlCl readily precipitates and a chloride-free buffer is required. • (3) Day 2 -Assay testing: Once the cells reached the desired confluence, the cell assay plates were removed from the incubator. […] After setting up the tips, baseline readings were taken for 60 seconds, then 12.5 µL was added from the composite plate (3×) to the cell assay plate, and data were recorded for at least 5 minutes. • (4) Data processing: Maximum signals were generated by the FLIPR software. […]
• (1) Day 1 - Cell preparation: Cells were digested as described above, and cell density and viability were determined using a Cell Countess. […]

Data set [1] is described as follows: Pharmacokinetic evaluation in mice (IV and PO). Format: in vivo. The conditions noted are these: mouse, plasma, CD-1 mice, dose IV:0.5, PO:2 mg/kg. As to the method:
Test Method 2: Pharmacokinetic Evaluation in Mice
Assay method: Test compounds were mixed with 5% DMSO / 60% polyethylene glycol (PEG400) / 35% water, vortexed and sonicated to obtain a clear 0.2 mg/mL solution, which was then filtered through a microporous membrane before use. Male CD-1 mice weighing 25-35 g were selected. The candidate compound solution was administered intravenously at a dose of 1 mg/kg. The candidate compound solution was orally administered at a dose of 5 mg/kg after fasting. Blood samples (25 µL each) were collected at 0.083, 0.25, 0.5, 1, 2, 4, 8, 12 and 24 hours after administration, and placed into commercial anticoagulant tubes pre-containing EDTA-K2. The tubes were centrifuged for 10 minutes to separate plasma, which was then stored at -60°C. The content of the target compound in plasma samples was determined by LC/MS/MS method, and pharmacokinetic parameters were calculated using Phoenix WinNonlin software (Pharsight, USA). […]

In a further data set the target is CYP1A2 (Homo sapiens, UniProt P05177). Kind of data set: Drug-drug interaction evaluation: CYP inhibition in human liver microsomes (cocktail method). Here is the method: (§1) The cocktail method using specific probe substrates for CYP1A2, CYP2C9, CYP2C19, CYP2D6 and CYP3A was used to evaluate the inhibitory effect of the compounds on the activity of human liver microsomal cytochrome P450 isoenzymes (CYP1A2, CYP2C9, CYP2C19, CYP2D6 and CYP3A).
(§2) Human liver microsomes, probe substrates, positive control inhibitors, and reduced nicotinamide adenine dinucleotide phosphate (NADPH).
(§3) To the corresponding wells of a reaction plate, 20 µL of substrate solution was added; to blank wells, 20 µL of potassium phosphate buffer was added.
(§4) To the corresponding wells, 2 µL of test compound and positive control working solution were added; to inhibitor-free and blank wells, 2 µL of solvent was added.
(§5) Human liver microsome working solution was prepared, and 158 µL of human liver microsome working solution was added to each well of the reaction plate.
(§6) The plate was pre-incubated at 37.0°C for 10 minutes.
(§7) To start the reaction, 20 µL of NADPH cofactor working solution was added to the reaction plate.
(§8) After incubation in a 37.0°C water bath with mixing for 10 minutes, 400 µL of stop solution was added to terminate the reaction.
(§9) The sample plate was centrifuged at 4000 rpm for 20 minutes.
(§10) 200 µL of supernatant was taken and mixed with 100 µL of pure water as diluent, and the plate was shaken to mix well.
(§11) Analysis was performed by liquid chromatography-tandem mass spectrometry (LC-MS/MS).
(§12) Using the percentage of remaining activity as the ordinate and the test compound concentration as the abscissa, a non-linear regression analysis was performed with a three-parameter or four-parameter model using XL fit software to calculate the IC50 value.
(§13) y = (max)/(1 + (((x)/(IC50)))^−hillslope) [formula]
(§14) y = min + (max−min)/(1 + (((x)/(IC50)))^−hillslope) [formula]
(§15) max = maximum enzyme activity; min = minimum enzyme activity; x = concentration of test compound or positive control inhibitor; y = enzyme activity at the corresponding concentration; hillslope = slope; IC50 = half-maximal inhibitory concentration. The four-parameter equation was used when the minimum enzyme activity was within ±10%; otherwise the three-parameter equation was used.

The target in the next data set is CYP2C19 (Homo sapiens, UniProt P33261). The description is as above. As to the method: as §1, §2, §3, §4, §5, §6, §7, §8, §9, §10, §11, §12, §13, §14, §15
In a further data set the target is CYP2C9 (Homo sapiens, UniProt P11712). The data set is described as above. Here is the method:
as §1, §2, §3, §4, §5, §6, §7, §8, §9, §10, §11, §12, §13, §14, §15

For a further data set, the target named is CYP2D6 (Homo sapiens, UniProt P10635). Described as above. As to the method: as §1, §2, §3, §4, §5, §6, §7, §8, §9, §10, §11, §12, §13, §14, §15

`Cc1cccc(Nc2ccc3c(C)c(NC(=O)CC4(C)CC4)n(C)c3c2)n1` [Compound 34] returned an EC50 at hKCNQ2/3 of 0.31 µM.

Turning to `Cc1c(NC(=O)CC(C)(C)C)n(C)c2cc(Nc3ccc(C(F)(F)F)cc3)ccc12` [Compound 5], the AUC(0-t) in data set [1] (PO, read-out: Area under the concentration-time curve AUC0-last PO) came out at 5.32 µM·h. Also, the Cmax in data set [1] (read-out: Peak plasma concentration Cmax) turned out to be 491 nM. In addition, the IC50 against CYP1A2 is more than 50 µM; against CYP2C19, 18.8 µM; on CYP2C9 it was 10.4 µM; against CYP2D6 it was more than 50 µM.

`Cc1cccc(Nc2ccc3c(C)c(NC(=O)CC(C)(C)C)n(C)c3c2)n1` [Compound 32] registered an EC50 at hKCNQ2/3 of 0.33 µM.
